Experimental data as given in patent US10413529B2, “Methods of inhibiting cataracts and presbyopia” (UNIVERSITY OF MASSACHUSETTS, priority 2013, dated 2019).

Tests used:
γS-crystallin = target: T1, γS-crystallin (Homo sapiens, UniProt P22914); experiment: Dynamic light scattering (DLS) of γS-crystallin, hydrodynamic radius of monomer and aggregate; type: biochemical; settings: α-crystallin additive, molar ratio 3:1, one hour at 4° C.
T1 construct: 6xHis (N); made in house; host or cells: M15pRep E. coli (pQe1 plasmid from King Labs, MIT)
T1 sequence (P22914 1-178): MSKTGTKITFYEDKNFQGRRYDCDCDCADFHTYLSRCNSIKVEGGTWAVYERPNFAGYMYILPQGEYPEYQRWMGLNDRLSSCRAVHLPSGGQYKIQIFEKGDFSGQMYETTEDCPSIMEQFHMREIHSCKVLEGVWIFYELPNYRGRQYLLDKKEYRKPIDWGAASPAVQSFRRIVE
Experimental: (§1) The scattering wave vector is defined as q=4πn sin (θ/2)/λ, where θ is the scattering angle, and λ=514.5, the wavelength of the argon laser in vacuum, and n is 1.33, the refractive index of water. The temperature of the sample was held at constant temperature of 4 to 37±0.1° C. by a circulating water bath. The correlation function was analyzed using CONTIN analysis [NT] times for the correlation functions at measured angles. The peaks represent the diffusive mode of the proteins. The delay times (τ) were converted to Γ and graphed versus q^2. The slope of the fitted line is the diffusion coefficient (D). […] All solutions were filtered with 0.22 μm hydrophobic PVDF membranes (Fisher Scientific) into 10 mm diameter borosilicate glass tubes and sealed. Solutions were allowed to equilibrate for thirty minutes prior to measuring light scattering. […] The pH and salt concentration were adjusted via overnight dialysis at 4° C. and their final concentration adjusted to 1.0 g/L. […] The scattering wave vector is defined as q=4πn sin (θ/2)/λ, where θ is the scattering angle, and λ=514.5, the wavelength of the argon laser in vacuum, and n is 1.33, the refractive index of water. […] The correlation function was analyzed using CONTIN analysis [NT] times for the correlation functions at measured angles. […]

γD-crystallin = target: T2, γD-crystallin (Homo sapiens, UniProt P07320); experiment: Dynamic light scattering (DLS) of γD-crystallin, hydrodynamic radius of monomer and aggregate; type: biochemical; settings: α-crystallin additive, molar ratio 3:1, one hour at 4° C.
T2 construct: 6xHis (N); made in house; host or cells: M15pRep E. coli (pQe1 plasmid from King Labs, MIT)
T2 sequence (P07320 1-174): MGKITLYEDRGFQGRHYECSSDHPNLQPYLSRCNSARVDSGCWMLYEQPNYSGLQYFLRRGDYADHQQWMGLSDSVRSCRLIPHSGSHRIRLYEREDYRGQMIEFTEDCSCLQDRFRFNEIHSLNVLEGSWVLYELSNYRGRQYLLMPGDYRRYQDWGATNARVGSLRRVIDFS
Experimental: as §1

- Rhf (γS-crystallin; fast mode): 2.8 nm
- Rhs (γS-crystallin; slow mode): 18 nm
- Rhf (γD-crystallin; fast mode): 2.7 nm
- Rhs (γD-crystallin; slow mode): 16 nm
B1: αA: αA-crystallin, heat shock protein and molecular chaperone, 19.9 kDa (protein, UniProt P02489 1-173, looked up)
Alpha-crystallin A chain: MDVTIQHPWFKRTLGPFYPSRLFDQFFGEGLFEYDLLPFLSSTISPYYRQSLFRTVLDSGISEVRSDRDKFVIFLDVKHFSPEDLTVKVQDDFVEIHGKHNERQDDHGYISREFHRRYRLPSNVDQSALSCSLSADGMLTFCGPKIQTGLDATHAERAIPVSREEKPTSAPSS
